Measured affinities in a library of Ab-14 light chain variants

Reference: Li et al. 2023, doi:10.1038/s41467-023-39022-2. File: FLAb, binding data.

Target peptide (SARS-CoV-2 spike, HR2 region): PDVDLGDISGINAS

Ab-14 is the parent antibody, in scFv form: VH, then three GGGGS repeats, then VL. The heavy chain is unchanged in all variants.
VH: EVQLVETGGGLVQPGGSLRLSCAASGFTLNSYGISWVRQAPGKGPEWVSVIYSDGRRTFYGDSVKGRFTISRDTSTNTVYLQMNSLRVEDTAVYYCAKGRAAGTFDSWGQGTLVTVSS
VL: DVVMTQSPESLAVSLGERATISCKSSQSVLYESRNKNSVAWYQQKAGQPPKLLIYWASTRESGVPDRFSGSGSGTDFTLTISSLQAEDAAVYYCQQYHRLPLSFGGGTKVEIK

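The starting antibody came from a phage panning campaign against this peptide. This is the validation round: designs drawn from the data on random variants, tested in the same kind of assay. Their group label is 14L_GP_Gen (GP: Gaussian process model; Gen: genetic algorithm; a sequence that several methods proposed may carry one label only). Affinity was read by AlphaSeq, a pooled yeast mating assay with surface-displayed partners. Pairs that bind mate more often; barcode pairs of the diploids are counted by sequencing. Scores were corrected for input abundance and mapped to Kd with protein pairs of known affinity run in the same pool. There are six technical replicates.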

Sequences are complete VL domains. The read-out is the apparent dissociation constant on a log10 scale (nM): the lower, the stronger. Replicates are averaged; those with no signal do not enter the mean. A sequence measured in both rounds can read differently, since the two assays cover different ranges.

| # | VL | log10 Kd, replicates | log10 Kd (nM), mean | control signals |
|---|---|---|---|---|
| 1 | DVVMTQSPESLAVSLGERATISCKLSQSQLYESRQKNSVAWYQQKAGQPPKLLIYNASQRESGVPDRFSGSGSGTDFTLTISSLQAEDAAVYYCQQYHRLPLSFGGGTKVEIK | 0.46 / 0.06 / 0.05 / -0.16 / 0.28 / 0.07 | 0.13 | 1 of 18 (3.74) |
| 2 | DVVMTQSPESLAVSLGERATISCKLSQSVLYESRNKNSVAWYQQKAGQPPKLLIYDASTRSSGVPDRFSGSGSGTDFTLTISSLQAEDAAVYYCQQYHRLPLSFGGGTKVEIK | 0.06 / -0.28 / -0.04 / -0.18 / -0.15 / -0.11 | -0.12 | 1 of 18 (2.49) |
| 3 | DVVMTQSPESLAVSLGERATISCKSSQSWDYESRNKNSVAWYQQKAGQPPKLLIYNASTRESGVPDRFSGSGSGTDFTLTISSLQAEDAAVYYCQQYHRLPLSFGGGTKVEIK | 0.12 / 0.03 / -0.05 / 0.05 / 0.00 / -0.08 | 0.01 | 2 of 18 (3.97) |
| 4 | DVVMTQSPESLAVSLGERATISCKLSQSMLYESRNKNSVAWYQQKAGQPPKLLIYNASTRMEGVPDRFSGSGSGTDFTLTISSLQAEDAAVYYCQQYHRLPLSFGGGTKVEIK | -0.07 / -0.19 / -0.28 / -0.23 / -0.35 / -0.14 | -0.21 | 3 of 18 (2.61) |
| 5 | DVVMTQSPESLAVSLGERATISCKLSQSMLYESRNKNSVAWYQQKAGQPPKLLIYEASTRLSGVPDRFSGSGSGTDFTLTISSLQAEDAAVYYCQQYHRLPLSFGGGTKVEIK | -0.29 / -0.45 / -0.35 / -0.49 / -0.59 / -0.30 | -0.41 | 0 of 18 |
| 6 | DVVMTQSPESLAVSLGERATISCKVQQSWLYESRNKNSVAWYQQKAGQPPKLLIYNASTREDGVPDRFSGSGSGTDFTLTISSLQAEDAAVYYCQQYHRLPLSFGGGTKVEIK | 0.84 / 0.63 / 0.53 / 0.56 / 0.64 / 0.96 | 0.69 | 2 of 18 (3.02) |
| 7 | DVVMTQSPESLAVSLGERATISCKLSQSVLYESRNKNSVAWYQQKAGQPPKLLIYHASQRESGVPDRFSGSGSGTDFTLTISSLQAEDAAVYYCQQYHRLPLSFGGGTKVEIK | -0.22 / -0.30 / -0.20 / -0.28 / -0.31 / -0.12 | -0.24 | 1 of 18 (3.04) |
| 8 | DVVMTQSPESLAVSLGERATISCKLSQSMLYESRNKNNVAWYQQKAGQPPKLLIYSASTRESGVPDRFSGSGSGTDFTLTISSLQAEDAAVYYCQQYHRLPLSFGGGTKVEIK | -0.33 / -0.38 / -0.56 / -0.68 / -0.65 / -0.36 | -0.49 | 2 of 18 (2.48) |
| 9 | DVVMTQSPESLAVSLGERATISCKSSQSVPYESRNKNSVAWYQQKAGQPPKLLIYEASTRCSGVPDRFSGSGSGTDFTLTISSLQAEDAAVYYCQQYHRLPLSFGGGTKVEIK | -0.08 / 0.04 / -0.25 / -0.43 / -0.17 / 0.13 | -0.13 | 2 of 18 (2.47) |
| 10 | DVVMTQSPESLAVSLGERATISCKLSPSWLYESRNKNSVAWYQQKAGQPPKLLIYNASTRESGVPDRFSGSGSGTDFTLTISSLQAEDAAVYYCQQYHRLPLSFGGGTKVEIK | -0.18 / -0.43 / -0.38 / -0.66 / -0.51 / -0.41 | -0.43 | 0 of 18 |
| 11 | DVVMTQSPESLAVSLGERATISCKLSQSVLYESRNKNSVAWYQQKAGQPPKLLIYGAHTRESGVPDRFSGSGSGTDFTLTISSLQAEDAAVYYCQQYHRLPLSFGGGTKVEIK | -0.21 / -0.24 / -0.34 / -0.39 / -0.35 / -0.30 | -0.31 | 2 of 18 (3.30) |
| 12 | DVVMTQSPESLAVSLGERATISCKVYQSQLYESRNKNSVAWYQQKAGQPPKLLIYNASTRESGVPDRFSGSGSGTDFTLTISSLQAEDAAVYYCQQYHRLPLSFGGGTKVEIK | 0.37 / 0.26 / 0.27 / 0.15 / 0.45 / 0.63 | 0.36 | 1 of 18 (3.26) |
| 13 | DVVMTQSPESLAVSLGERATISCKVSQSELYESRNKNSVAWYQQKAGQPPKLLIYNASTRESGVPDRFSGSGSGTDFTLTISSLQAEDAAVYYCQQYHRLPLVFGGGTKVEIK | 0.11 / 0.01 / 0.10 / -0.25 / -0.12 / -0.12 | -0.04 | 1 of 18 (2.56) |
| 14 | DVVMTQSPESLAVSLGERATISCKFSQSWLYESRNKNSVAWYQQKAGQPPKLLIYNGSTRESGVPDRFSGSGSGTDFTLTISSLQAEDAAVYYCQQYHRLPLSFGGGTKVEIK | 0.14 / 0.39 / 0.24 / 0.05 / 0.13 / 0.42 | 0.23 | 1 of 18 (4.20) |
| 15 | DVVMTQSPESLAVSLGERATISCKLLQSVLYESRNKNSVAWYQQKAGQPPKLLIYGASTRESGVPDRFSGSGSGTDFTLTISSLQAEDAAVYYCQQYHRLPLSFGGGTKVEIK | 0.03 / -0.14 / -0.19 / -0.18 / -0.27 / 0.00 | -0.13 | 1 of 18 (4.09) |
| 16 | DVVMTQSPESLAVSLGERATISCKLSQSDLYESRNKNSVAWYQQKAGQPPKLLIYHASQRESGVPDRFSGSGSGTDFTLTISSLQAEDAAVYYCQQYHRLPLSFGGGTKVEIK | 0.43 / 0.18 / 0.39 / 0.06 / 0.63 / 0.53 | 0.37 | 3 of 18 (1.87) |
| 17 | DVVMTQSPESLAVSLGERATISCKFQQSVLYESRNKNSVAWYQQKAGQPPKLLIYDASTRESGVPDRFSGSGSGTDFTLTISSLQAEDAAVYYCQQYHRLPLSFGGGTKVEIK | 0.27 / 0.09 / 0.06 / -0.24 / 0.07 / 0.23 | 0.08 | 0 of 18 |
| 18 | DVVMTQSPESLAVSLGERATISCKLSQSVLYESRNKWSVAWYQQKAGQPPKLLIYGASTRESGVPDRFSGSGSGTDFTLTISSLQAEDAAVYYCQQYHRLPLSFGGGTKVEIK | 0.65 / 0.51 / 0.47 / 0.39 / 0.38 / 0.56 | 0.49 | 2 of 18 (2.59) |
| 19 | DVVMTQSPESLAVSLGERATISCKVMQSVLYESRNKNSVAWYQQKAGQPPKLLIYEASTRESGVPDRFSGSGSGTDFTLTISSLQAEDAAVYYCQQYHRLPLSFGGGTKVEIK | -0.26 / -0.13 / -0.03 / -0.38 / -0.06 / -0.16 | -0.17 | 1 of 18 (2.22) |
| 20 | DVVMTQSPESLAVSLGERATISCKLPQSVLYESRNKNAVAWYQQKAGQPPKLLIYQASTRESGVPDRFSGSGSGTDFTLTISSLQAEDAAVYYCQQYHRLPLSFGGGTKVEIK | 0.01 / -0.12 / -0.43 / -0.41 / -0.28 / -0.20 | -0.24 | 1 of 18 (3.41) |
| 21 | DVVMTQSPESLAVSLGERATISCKLSQSMLYESRNKNSVAWYQQKAGQPPKLLIYNASTREEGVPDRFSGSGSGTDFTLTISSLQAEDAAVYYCQQYHRLPLSFGGGTKVEIK | -0.07 / -0.07 / -0.04 / -0.34 / -0.01 / -0.29 | -0.14 | 0 of 18 |
| 22 | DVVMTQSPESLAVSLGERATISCKLSQSFLYESRNKNNVAWYQQKAGQPPKLLIYNASQRESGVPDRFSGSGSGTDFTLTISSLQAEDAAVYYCQQYHRLPLSFGGGTKVEIK | 0.12 / -0.26 / -0.18 / -0.47 / -0.12 / -0.16 | -0.18 | 0 of 18 |
| 23 | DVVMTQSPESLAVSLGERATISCKLSQSHLYESRMKNSVAWYQQKAGQPPKLLIYNASTREVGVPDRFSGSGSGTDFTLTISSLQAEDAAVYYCQQYHRLPLSFGGGTKVEIK | 0.26 / 1.86 / -0.01 / -0.21 / 0.55 / 1.64 | 0.68 | 0 of 18 |
| 24 | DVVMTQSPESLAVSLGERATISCKLSWSWLYESRNKNSVAWYQQKAGQPPKLLIYEASTRESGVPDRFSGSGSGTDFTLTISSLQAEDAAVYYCQQYHRLPLSFGGGTKVEIK | -0.02 / 0.00 / -0.23 / -0.35 / -0.24 / -0.10 | -0.16 | 0 of 18 |
| 25 | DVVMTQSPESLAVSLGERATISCKLSWSMLYESRNKNSVAWYQQKAGQPPKLLIYEASTRESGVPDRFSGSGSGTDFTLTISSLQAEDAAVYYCQQYHRLPLSFGGGTKVEIK | -0.07 / -0.10 / -0.22 / -0.27 / -0.07 / 0.10 | -0.10 | 1 of 18 (2.36) |
| 26 | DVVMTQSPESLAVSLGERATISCKVSQSVLYESRAKNSVAWYQQKAGQPPKLLIYEASTRESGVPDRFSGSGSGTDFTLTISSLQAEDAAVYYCQQYHRLPLSFGGGTKVEIK | -0.05 / -0.14 / -0.30 / -0.37 / -0.33 / -0.21 | -0.23 | 1 of 18 (2.37) |

For reference, 2 entries of the list once more:

| VL | log10 Kd, replicates | log10 Kd (nM), mean | control signals |
|---|---|---|---|
| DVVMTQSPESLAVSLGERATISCKLLQSVLYESRNKNSVAWYQQKAGQPPKLLIYGASTRESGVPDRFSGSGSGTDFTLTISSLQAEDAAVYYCQQYHRLPLSFGGGTKVEIK | 0.03 / -0.14 / -0.19 / -0.18 / -0.27 / 0.00 | -0.13 | 1 of 18 (4.09) |
| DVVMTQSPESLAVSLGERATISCKLSPSWLYESRNKNSVAWYQQKAGQPPKLLIYNASTRESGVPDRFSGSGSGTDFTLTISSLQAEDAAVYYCQQYHRLPLSFGGGTKVEIK | -0.18 / -0.43 / -0.38 / -0.66 / -0.51 / -0.41 | -0.43 | 0 of 18 |

Empty control strains, which show no peptide, gave a signal in 4% of pairings with all light chain designs; the median was 2.64 and 95% of these signals were weaker than 1.59. No background was subtracted. For each scFv, signals with the empty controls are counted beside the result, with their mean in brackets. The authors' rule: three or more of the six replicates give a measured affinity, fewer mean a poor binder. Of ten entries with the parent sequence, four were seen in most replicates (averages 0.34 to 2.37), three in one and three in none, so single entries are noisy.